{
  "source": "patent US9005678B1",
  "about": "“Pharmaceutical composition for treating cancer and use thereof” (Jiangsu Province Institute of Traditional Chinese Medicine, priority 2013, dated 2015)",
  "origin": "cited, not measured here",
  "details": "cumulative dose of 780 to 850 mg/m^2; cited from earlier work",
  "data": [
    {"compound": "O=C1[O][Pt]2([NH][C@@H]3CCCC[C@H]3[NH]2)[O]C1=O", "note": "[oxaliplatin]", "values": [
      {"measurement": "cancer patients suffering neurotoxicity", "result": 15, "unit": "%"}
    ]}
  ]
}
